Reference: US10865384B2, “2,4,5-tri-substituted azole-based casein kinase 1 inhibitors as inducers for cardiomyogenesis” (AGENCY FOR SCIENCE, TECHNOLOGY AND RESEARCH, priority 2014, dated 2020)

By UniProt entry, the sequences of proteins in these tests, tags left out. Where a name states a change or a piece, a line headed by the entry shows the natural chain unless it says otherwise.
UniProt P48730: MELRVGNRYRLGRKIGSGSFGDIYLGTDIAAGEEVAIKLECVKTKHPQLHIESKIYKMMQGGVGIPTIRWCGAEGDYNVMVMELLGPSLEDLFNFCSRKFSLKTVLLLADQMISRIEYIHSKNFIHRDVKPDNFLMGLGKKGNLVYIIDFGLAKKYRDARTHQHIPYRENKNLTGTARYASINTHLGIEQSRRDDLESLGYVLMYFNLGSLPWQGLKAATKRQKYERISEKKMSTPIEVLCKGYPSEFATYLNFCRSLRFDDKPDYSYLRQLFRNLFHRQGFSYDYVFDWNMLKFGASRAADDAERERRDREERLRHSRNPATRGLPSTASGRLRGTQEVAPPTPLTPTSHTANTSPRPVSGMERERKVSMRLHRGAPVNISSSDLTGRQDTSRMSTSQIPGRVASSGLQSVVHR
UniProt P49674: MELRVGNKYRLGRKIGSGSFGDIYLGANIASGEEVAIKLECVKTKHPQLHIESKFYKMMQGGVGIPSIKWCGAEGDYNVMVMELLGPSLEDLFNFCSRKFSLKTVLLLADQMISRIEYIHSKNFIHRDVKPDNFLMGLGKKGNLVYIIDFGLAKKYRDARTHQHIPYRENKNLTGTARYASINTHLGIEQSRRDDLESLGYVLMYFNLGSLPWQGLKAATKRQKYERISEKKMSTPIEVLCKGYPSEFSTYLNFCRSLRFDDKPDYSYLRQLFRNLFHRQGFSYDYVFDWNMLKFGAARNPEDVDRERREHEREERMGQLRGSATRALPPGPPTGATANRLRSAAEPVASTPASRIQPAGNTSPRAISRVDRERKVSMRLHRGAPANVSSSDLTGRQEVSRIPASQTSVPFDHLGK

Tests used:
CK1δ = CK1δ (Homo sapiens (Human), UniProt P48730); test: LanthaScreen Eu kinase binding assay, CK1δ; conditions: read-out: IC50 CK1δ; Table 3
CK1ϵ = CK1ϵ (Homo sapiens (Human), UniProt P49674); test: LanthaScreen Eu kinase binding assay, CK1ϵ; conditions: read-out: IC50 Ck1ε; Table 3

NC(=O)c1ccc(-c2nc(-c3ccc4c(c3)OCO4)c(-c3ccccn3)[nH]2)cc1 [SB431542, reference compound] gave an IC50 (CK1δ) of 174 nM and an IC50 (CK1ϵ) of 147 nM.
